{
  "source": "patent US10738049B2",
  "about": "“N-{3-[3-cyclopropyl-5-(2-fluoro-4-iodophenylamino)-6,8-dimethyl-2,4,7-trioxo-3,4,6,7-tetrahydro-2H-pyrido[4,3-D]pyrimidin-1-YL]-phenyl}-cyclopropanecarboxamide dimethyl sulfoxide solvate as an MEK1/2 inhibitor” (R-PHARM JOINT STOCK COMPANY (R-PHARM, JSC), priority 2016, dated 2020)",
  "assay": "Body weight and deaths during treatment in the xenograft study",
  "details": "doses up to and including 3 mg/kg, 21 days",
  "data": [
    {"smiles": "Cc1c(=O)n(C)c(Nc2ccc(I)cc2F)c2c(=O)n(C3CC3)c(=O)n(-c3cccc(NC(=O)C4CC4)c3)c12", "note": "[Compound of formula 1, N-{3-[3-cyclopropyl-5-(2-fluoro-4-iodophenylamino)-6,8-dimethyl-2,4,7-trioxo-3,4,6,7-tetrahydro-2H-pyrido[4,3-d]pyrimidin-1-yl]-phenyl}-cyclopropanecarboxamide dimethyl sulfoxide solvate]", "values": [
      {"measurement": "Animal weights versus control group", "value": "not significantly different"}
    ]}
  ]
}
